This is an account of results in BindingDB's records for patent US10287286 (Takeda Pharmaceutical, 2019).

Protein sequences, listed by entry. Tags and fused reporters are not part of them.
UniProt Q96KS0, whole entry: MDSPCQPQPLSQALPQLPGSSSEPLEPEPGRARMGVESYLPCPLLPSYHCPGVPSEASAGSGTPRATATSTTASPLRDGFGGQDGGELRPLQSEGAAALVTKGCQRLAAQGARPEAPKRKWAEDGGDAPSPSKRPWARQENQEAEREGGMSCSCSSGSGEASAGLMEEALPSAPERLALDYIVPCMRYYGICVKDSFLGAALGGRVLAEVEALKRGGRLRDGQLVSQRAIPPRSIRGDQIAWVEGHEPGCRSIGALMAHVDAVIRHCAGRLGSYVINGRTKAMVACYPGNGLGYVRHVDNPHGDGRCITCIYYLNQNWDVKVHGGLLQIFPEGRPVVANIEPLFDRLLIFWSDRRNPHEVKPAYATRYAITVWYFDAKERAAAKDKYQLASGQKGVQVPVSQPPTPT

This assay addresses Prolyl hydroxylase EGLN2 (Homo sapiens, UniProt Q96KS0). Description: PHD1 Enzyme Assay.

Each structure is given as a SMILES string.

Consider `[CH3][Na]1[CH2]CC(OC(=O)Nc2cc(-c3ccc(C#N)c(F)c3)n3ncnc3c2)C[CH2]1` [US10287286, Example 197], for which 53 nM corresponded to half-maximal inhibition (IC50).
The figure for `N#Cc1ccc(-c2ccnc3ncnn23)cc1` [US10287286, Example 38] is 543 nM.

By IC50 is commonly meant the concentration needed to halve the response being measured. A higher IC50 goes with a need for much substance.
